Protein sequences, listed by entry. Tags and fused reporters are not part of them. Lines headed by an entry give the natural chain unless they say otherwise; changes in a name come on top. Residues count along the entry.
UniProt Q9UGN5: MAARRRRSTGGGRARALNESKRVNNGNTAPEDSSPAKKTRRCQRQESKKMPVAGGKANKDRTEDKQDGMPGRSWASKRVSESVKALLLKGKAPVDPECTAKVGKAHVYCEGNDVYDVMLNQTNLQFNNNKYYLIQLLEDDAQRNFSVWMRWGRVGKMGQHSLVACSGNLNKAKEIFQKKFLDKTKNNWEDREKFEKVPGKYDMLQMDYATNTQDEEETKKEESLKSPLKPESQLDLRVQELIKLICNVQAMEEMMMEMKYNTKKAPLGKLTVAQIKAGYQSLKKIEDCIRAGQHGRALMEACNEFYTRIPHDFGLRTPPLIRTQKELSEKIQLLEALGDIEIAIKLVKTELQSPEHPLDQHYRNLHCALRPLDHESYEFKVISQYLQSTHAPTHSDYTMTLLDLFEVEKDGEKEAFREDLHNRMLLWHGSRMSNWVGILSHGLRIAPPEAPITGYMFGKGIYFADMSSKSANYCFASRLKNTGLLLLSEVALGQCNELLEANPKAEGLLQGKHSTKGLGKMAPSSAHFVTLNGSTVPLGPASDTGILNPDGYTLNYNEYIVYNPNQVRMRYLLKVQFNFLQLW
UniProt Q9H2K2, 946-1162: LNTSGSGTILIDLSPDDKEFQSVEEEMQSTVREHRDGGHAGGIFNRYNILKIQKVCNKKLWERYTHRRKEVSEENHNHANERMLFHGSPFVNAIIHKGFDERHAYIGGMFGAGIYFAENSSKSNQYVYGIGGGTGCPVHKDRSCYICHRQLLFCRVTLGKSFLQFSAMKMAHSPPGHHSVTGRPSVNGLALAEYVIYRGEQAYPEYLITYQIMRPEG

According to patent US9505749B2, “Quinazolinone compounds and derivatives thereof” (AMGEN INC., priority 2012, dated 2016):

Tests used:
[1] = target: PARP2 (Homo sapiens (Human), UniProt Q9UGN5); test: PARP2 biochemical assay (BPS kit)
[2] = target: 6×HIS-tankyrase 2 (946-1162) (Homo sapiens (Human), UniProt Q9H2K2); test: Tankyrase 2 biochemical assay (AlphaLisa, PARsylation); conditions: 250 nM NAD; read-out: TNKS2 IC50

IC50 [2]	Compound	IC50 [1]
–	O=C(CCc1nc2ccccc2c(=O)[nH]1)N[C@H]1CC[C@H](c2nnc(-c3ccccc3F)o2)CC1 [Example 126, N-((1r,4r)-4-(5-(2-fluorophenyl)-1,3,4-oxadiazol-2-yl)cyclohexyl)-3-(4-oxo-3,4-dihydroquinazolin-2-yl)propanamide]	1070 nM
5.92 nM	O=C(CCc1nc2ccccc2c(=O)[nH]1)N[C@H]1CC[C@H](c2nnc(-c3ccc(Cl)cc3)o2)CC1 [Example 141, N-((1r,4r)-4-(5-(4-chlorophenyl)-1,3,4-oxadiazol-2-yl)cyclohexyl)-3-(4-oxo-3,4-dihydroquinazolin-2-yl)propanamide]	–
